Experimental data taken from patent publication EP4847524A2, “FATTY ACID CONJUGATED CYCLIC PEPTIDES” (dated 2026).

Legend:
[1] = Size exclusion chromatography (SEC) for aggregation; details: in either 10mM phosphate at pH 7 or 10mM TRIS at pH8
Method: Preliminary screening methods for the evaluation of multiple fatty acid peptide analogs included a two-stage approach. First, formulations were prepared at target concentrations of approximately 10, 20, 40 or 50 mg/mL in 150 mM phosphate, pH 7.5. These formulations were titrated using NaOH, as needed, to the target pH 7.5 and were evaluated (visual assessment only). For visibly insoluble formulations, an additional buffer was added to dissolve the peptide. Once dissolved, all formulations were filtered through a 0.2 µm PVDF filter membrane and analyzed by RP-HPLC for soluble content. Formulations were incubated at 4°C, room temperature, and 37°C. At day 0 and 7 the formulations were analyzed by visual observation for solubility, size exclusion chromatography (SEC) for aggregation, & RP-HPLC for chemical stability studies.
Size exclusion chromatography (SEC) was conducted using an Agilent 1260 Infinity II-UV equipped with a Sepax Zenix-C SEC-300 (3 µm, 300 Å, 4.6 x 300 mm). UV absorption at 220 nm was monitored during the analysis. Formulated samples from day 0 and 7 were used directly for injection with injection volume of 1 µL. Separation was achieved using an isocratic buffer system containing 150 mM sodium phosphate (pH 7.5) at room temperature, with a constant flow rate at 0.35 mL/minute, and a run time of 15 minutes. […]

[2] = Peptide pharmacokinetics, dog study (IV and SC)
Method: Pharmacokinetics of the test peptides were evaluated in vivo as described herein. Male Sprague Dawley rats (300-450 g), male Beagle dogs (5-10 kg) and male cynomolgus monkeys (2-4 kg) were used in the pharmacokinetics (PK) study. All animal procedures were approved by the Institutional Animal Care and Use Committee at the Test Facility.
For IV dosing, compounds were administered by intravenous bolus injection into one of the two peripheral tail veins, at either 0.1 mg/kg or 0.3 mg/kg in 0.01 M phosphate (pH 7.4, 1 mg/mL). Following dosing, the catheter was flushed with 3 mL of saline prior to removal. For SC dosing, compounds were administered at the intra-scapular skin, at 0.3 mg/kg or 0.9 mg/kg in 0.01M phosphate (pH 7.4, 5 mg/mL). The SC injection site was prepared by clipping away the hair and cleaning with alcohol. After administration the dose site was marked with indelible ink.
Blood samples were collected into tubes with K2EDTA. Tubes were stored on wet ice until processed to plasma by centrifugation (2,200 x g at nominal 4°C for 10 minutes) within 60 minutes of collection. Plasma samples were transferred into individual uniquely labeled matrix tubes and stored at nominal -80°C until analysis by liquid chromatography tandem-mass spectrometry (LC-MS/MS).
The plasma samples were prepared by solid phase extraction (SPE) using a Waters PRiME HLB Microelution plate. The SPE plate was conditioned using water:methanol (50:50, v/v) and 0.5% tween 80 in water. After pretreated samples were loaded, wells were washed with 5% methanol in water and 0.1% TFA in water:acetonitrile (80:20, v/v). Wells were eluted with 0.1% formic acid, 0.5% 2,2,2-trifluoroethanol in water:acetonitrile (20:80, v/v) followed by a dilution with 0.1% formic acid, 0.1% tween 80 in water for analysis by LC-MS/MS. The analyte and internal standard (IS) were separated by reversed-phase chromatography using a Shimadzu Nexera X2 UHPLC system and Phenomenex bioZen Peptide PS-C18 50x2.1-mm, 3µm column. The analyte and IS were detected using an Applied Biosystems Sciex API 6500 triple quadrupole mass spectrometer. The mass spectrometer was equipped with an electrospray ionization source operated in the positive-ion mode. The analyte and internal standard were monitored in the multiple-reaction-monitoring scan mode.
Noncompartmental pharmacokinetic parameters were calculated using Phoenix® WinNonlin® software (Version 8.3; Linear Up Log Down Interpolation Calculation Method; Certara L.P.).

[3] = Viscosity (no method described); details: in either 10mM phosphate at pH 7 or 10mM TRIS at pH8

Which aggregation [1] does the source give for “Ac-Asp-Leu-Thr-D-Phe-His-Leu-Leu-Arg-Glu-Val-Leu-Glu-Nle-K*-Arg-Glu-Glu-Gln-cVal-Ala-Gln-E#-Ala-Glu-K#-Asn-Arg-Lys-Leu-Nle-Glu-cVal-Ala-CONH2” here?
The aggregation was “no aggregation”.

And the “IV CL” value ([2]; IV dose 0.1 mg/kg)?
The value was 8.6 mL/day/kg.

And the “IV Vd” value ([2]; IV dose 0.1 mg/kg)?
Its value is 0.041 L/kg.

And the “IV t1/2” value ([2]; IV dose 0.1 mg/kg)?
Its value is 72.2 h.

What about the “SC AUC” value ([2]; SC Dose 0.3 mg/kg) of the same substance?
Its value is 483 µg·h/mL.

And the “SC Cmax” value ([2]; SC Dose 0.3 mg/kg)?
The value was 3620 ng/mL.

What about the “SC Tmax” value ([2]; SC Dose 0.3 mg/kg) of the same substance?
The value was 27 h.

And the “SC t1/2” value ([2]; SC Dose 0.3 mg/kg)?
Its value is 179 h.

And the “SC F” value ([2]; SC Dose 0.3 mg/kg, IV dose 0.1 mg/kg)?
Its value is 80%.

What about the viscosity [3] of the same substance?
Its viscosity is “low viscosity”.
